Source: article PMC12186257, “Serendipitous and Systematic Chemoproteomic Discovery of MBLAC2, HINT1, and NME1‑4 Inhibitors from Histone Deacetylase-Targeting Pharmacophores” (ACS Chemical Biology, 2025)

Legend:
HDAC6 = target: T1, HDAC6 (Homo sapiens, UniProt Q9UBN7); test: chemoproteomic competition assay (MV4-11/SW620 lysate, iA/iC/iQ beads, MS readout); type: binding
T1 construct: incubated at increasing concentrations with a mixture of lysates of MV4–11 and SW620 cells; endogenous in cells; host or cells: mixed lysate of MV4-11 and SW620 cells
T1 sequence (Q9UBN7 1-1215): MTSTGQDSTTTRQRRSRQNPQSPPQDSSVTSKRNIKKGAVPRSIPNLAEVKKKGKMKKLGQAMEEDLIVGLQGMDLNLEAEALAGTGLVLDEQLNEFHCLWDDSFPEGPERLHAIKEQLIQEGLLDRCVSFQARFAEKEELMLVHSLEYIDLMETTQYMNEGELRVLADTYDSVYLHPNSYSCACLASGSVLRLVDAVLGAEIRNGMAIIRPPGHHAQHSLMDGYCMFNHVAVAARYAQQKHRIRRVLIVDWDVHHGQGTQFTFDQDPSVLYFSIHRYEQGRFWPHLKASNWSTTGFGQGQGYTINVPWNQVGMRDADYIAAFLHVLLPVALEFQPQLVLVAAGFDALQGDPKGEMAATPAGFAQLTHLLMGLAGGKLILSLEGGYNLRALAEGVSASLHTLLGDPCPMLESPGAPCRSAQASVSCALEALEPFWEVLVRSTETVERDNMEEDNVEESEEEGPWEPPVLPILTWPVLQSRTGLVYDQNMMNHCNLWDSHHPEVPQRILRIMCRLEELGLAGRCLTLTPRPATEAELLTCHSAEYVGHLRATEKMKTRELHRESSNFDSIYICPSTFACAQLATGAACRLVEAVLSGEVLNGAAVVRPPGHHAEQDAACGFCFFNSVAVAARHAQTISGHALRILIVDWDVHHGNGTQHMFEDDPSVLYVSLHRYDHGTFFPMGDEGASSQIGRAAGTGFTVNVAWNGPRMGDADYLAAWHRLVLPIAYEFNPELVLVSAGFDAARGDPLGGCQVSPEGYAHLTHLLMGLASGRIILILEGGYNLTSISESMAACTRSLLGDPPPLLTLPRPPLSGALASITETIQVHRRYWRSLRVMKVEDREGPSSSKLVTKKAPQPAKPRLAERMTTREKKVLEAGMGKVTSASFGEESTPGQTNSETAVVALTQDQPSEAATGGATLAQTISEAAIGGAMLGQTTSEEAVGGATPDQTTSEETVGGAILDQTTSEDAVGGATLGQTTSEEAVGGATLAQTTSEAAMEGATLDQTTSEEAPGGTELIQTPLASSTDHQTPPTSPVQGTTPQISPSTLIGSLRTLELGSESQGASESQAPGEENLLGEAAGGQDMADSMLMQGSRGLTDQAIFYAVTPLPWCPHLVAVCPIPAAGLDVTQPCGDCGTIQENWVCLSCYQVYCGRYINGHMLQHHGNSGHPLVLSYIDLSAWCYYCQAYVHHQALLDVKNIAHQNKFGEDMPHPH
Procedure: MBLAC2 is a metalloenzyme predicted to harbor one or two Zn^2+ ions in its active site. […] In this assay, compounds of interest are incubated at increasing concentrations with a mixture of lysates of MV4–11 and SW620 cells. The compound-treated lysates are then mixed with bead-immobilized hydroxamic acid-containing compounds iA, iC, and iQ (immobilized Quisinostat), which pull down compound-binding proteins such as HDACs, MBLAC2, ISOC1/2, ALDH2, and GATD3A (Figure a) that can be identified and quantified by mass spectrometry (MS). Proteins targeted by the library compounds in a preincubation step are prevented from being pulled down by the immobilized probes, leading to a dose-dependent reduction in MS signal. […]
(§1) Chemoproteomic competition assays
(§2) Sample preparation. […]
(§3) LC-MS/MS. The different sample types were measured with different LC-MS/MS settings. MBLAC2 2-dose competition assays were measured with the Lumos1 setup, MBLAC2 9-dose competition assays were measured with the Lumos2 setup, and kinobeads assays were measured with the Eclipse setup.
(§4) Peptides were analyzed via LC–MS/MS on a Dionex Ultimate3000 nano HPLC coupled to either one of two Orbitrap Fusion Lumos mass spectrometers, or to an Orbitrap Eclipse mass spectrometer, operated via the Thermo Scientific Xcalibur software. […]

MBLAC2 = target: T2, MBLAC2 (Homo sapiens, UniProt Q68D91); test: as above; type: binding
T2 construct: incubated at increasing concentrations with a mixture of lysates of MV4–11 and SW620 cells; endogenous in cells; host or cells: mixed lysate of MV4-11 and SW620 cells
T2 sequence (Q68D91 1-279): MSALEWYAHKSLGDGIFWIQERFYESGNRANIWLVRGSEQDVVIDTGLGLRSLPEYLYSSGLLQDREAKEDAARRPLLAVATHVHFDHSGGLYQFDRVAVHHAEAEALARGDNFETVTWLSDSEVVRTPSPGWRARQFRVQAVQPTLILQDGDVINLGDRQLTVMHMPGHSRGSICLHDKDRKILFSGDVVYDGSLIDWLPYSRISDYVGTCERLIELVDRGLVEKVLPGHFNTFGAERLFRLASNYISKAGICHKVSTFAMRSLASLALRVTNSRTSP
Procedure: MBLAC2 is a metalloenzyme predicted to harbor one or two Zn^2+ ions in its active site. […] In this assay, compounds of interest are incubated at increasing concentrations with a mixture of lysates of MV4–11 and SW620 cells. The compound-treated lysates are then mixed with bead-immobilized hydroxamic acid-containing compounds iA, iC, and iQ (immobilized Quisinostat), which pull down compound-binding proteins such as HDACs, MBLAC2, ISOC1/2, ALDH2, and GATD3A (Figure a) that can be identified and quantified by mass spectrometry (MS). Proteins targeted by the library compounds in a preincubation step are prevented from being pulled down by the immobilized probes, leading to a dose-dependent reduction in MS signal. Initially, 12 metal-chelating compounds were profiled at two concentrations (10 μM and 100 μM) (Figure S3).
as §1, §2, §3, §4

For `O=C(NO)c1ccc(CN2c3ccccc3S(=O)(=O)c3ccccc32)cc1` [KV-65], the pEC50 (HDAC6) was 5.62, the “selectivity compared to HDACs” value (MBLAC2; abstract) was “over 60 fold” and the “selectivity over HDAC6 (EC50 HDAC6/EC50 MBLAC2)” value (MBLAC2; from EC50 values) was 64 fold.

pEC50: −log10 of the molar value.
